Measured values as given in paper PMC11750451, “Diarylamidine activation of a brachiopod DEG/ENaC/ASIC channel” (The Journal of Biological Chemistry, 2024).
Entries after “also recorded” stand apart in the source; their conditions may differ.

Chains of the proteins cited; added tags and fusions are not shown.
UniProt A0AAU8BSW0, entry or part of it: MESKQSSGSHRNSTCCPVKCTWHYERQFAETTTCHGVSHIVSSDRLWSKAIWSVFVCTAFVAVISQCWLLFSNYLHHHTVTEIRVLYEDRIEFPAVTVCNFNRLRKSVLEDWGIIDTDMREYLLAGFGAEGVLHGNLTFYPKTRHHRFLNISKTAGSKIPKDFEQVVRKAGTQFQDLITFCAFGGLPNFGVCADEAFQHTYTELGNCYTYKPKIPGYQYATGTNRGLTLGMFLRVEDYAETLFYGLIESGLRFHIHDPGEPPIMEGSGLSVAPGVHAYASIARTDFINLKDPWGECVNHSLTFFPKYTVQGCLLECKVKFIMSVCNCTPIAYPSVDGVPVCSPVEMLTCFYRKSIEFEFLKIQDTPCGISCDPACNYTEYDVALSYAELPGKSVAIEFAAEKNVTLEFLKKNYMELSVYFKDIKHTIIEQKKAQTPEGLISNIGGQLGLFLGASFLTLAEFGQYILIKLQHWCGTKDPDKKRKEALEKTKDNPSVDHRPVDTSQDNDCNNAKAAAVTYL

Target: DiaaNaC (diarylamidine-activated Na+ channel) (Novocrania anomala, UniProt A0AAU8BSW0)
Experiment: Two-electrode voltage clamp of Xenopus laevis oocytes expressing WT DiaaNaC
Format: cell-based
Method: Before electrophysiological recordings or surface expression determination, the oocytes were cultured for 3 days at 18 °C in 50% Leibowitz medium (L1518, Merck), supplemented with 0.25 mg/ml gentamicin, 1 mM L-glutamine, and 15 mM Hepes (pH 7.6). For surface expression detection, mouse anti-Myc tag monoclonal IgG1 antibody (MA121316, Fisher Scientific) was used to detect the myc tag attached to the 3′-end of all the constructs used in this work, and the protocol previously used in our lab was followed ([47]) using a Zeiss Axio Scope A1 microscope. The intensity of the expression signal was quantified by tracing a perpendicular line across the oocyte membrane and measuring the gray values with ImageJ software ([48]).
Whole cell currents were recorded from oocytes by two-electrode voltage clamp using an OC-725D amplifier (Warner Instruments) controlled via an Axon Digitata 1550B interface and pClamp v11 (Molecular Devices), acquired at 1 kHz, and filtered at 200 Hz. Currents were analyzed in pClamp v10.7 software (Molecular Devices) and additionally filtered at 10 Hz for display in figures. Oocytes were clamped at −60 mV, unless otherwise indicated, and continuously perfused with a bath solution containing (in mM): 140 NaCl, 1.8 BaCl2, and 10 Hepes. The pH was adjusted to 7.5 with NaOH, HCl, or KOH, as appropriate. For current–voltage relationships where K^+ replaced Na^+, KCl replaced NaCl in the above bath solution. In most experiments, activating solution was applied to oocytes in between resting periods of at least 30 to 60 s. After retrieving current amplitude from pClamp, all data were analyzed in Prism v9 (GraphPad Software). Currents were normalized by dividing by the maximum current at that oocyte, giving “I/Imax” in most concentration–response graphs. For graphs in figures and for calculating half-maximal effective (or inhibitory) concentration (EC50 or IC50) values, variable slope nonlinear regression was used in Prism v9, with the equation Y = Bottom + (Top-Bottom)/ […] 10^∧((LogEC50-X)∗HillSlope)), and maximum was constrained to one and minimum to zero. […]

With `N=C(N)NC(=O)c1nc(Cl)c(N)nc1N` [amiloride] the IC50 was roughly 800 µM, the “percentage of amiloride block, change with membrane voltage” value (1 mM amiloride, pentamidine 300 μM, −100 mV to +10 mV) was “did not change significantly” and the “activation of DiaaNaC (agonist activity)” value (compound at 1 mM, −60 mV) was “activated no current; also recorded: none of these compounds activated”.
